In patent US7456293B2, “Substituted carboxylic acid derivatives for the treatment of diabetes and lipid disorders, their preparation and use” (SK Holding Co., Ltd, priority 2005, dated 2008) one finds glucose transport data, which are given here for 1 substance.

The subject of this assay is 3T3-L1 adipocytes. Nature of the assay: Insulin-stimulated glucose uptake (2-deoxy-D-glucose) in differentiated 3T3-L1 adipocytes. It counts as cell-based. The note with it: separate treatment: 1 μM compound alone or 100 nM insulin alone, 48 h. How it is done: Adipocyte differentiation was then induced using standard protocol. […] The maintenance medium was changed every 3 days until the cells were utilized for experimentation. Glucose transport activity was measured in the presence or absence of insulin and the protocol was modified from Kletzien, R F et al. (1992) Molecular Pharmacology 41:393-398. Briefly, differentiated 3T3-L1 adipocytes were incubated with control (DMSO), insulin (100 nM) alone, the compound of Example 1 (1 μM) alone and a combination of insulin (100 nM)+the compound of Example 1 (1 μM) for 48 h. In each instance, the medium was changed twice a day. […] […] In order to determine whether there is an enantio-dependency of compound of example 1, we investigated the effect of each enantiomer and racemate on insulin-stimulated glucose uptake as described above.

insulin: the glucose transport entry was “increase in glucose transport”.
